{"source": "patent US20230043948A1", "about": "“METHOD AND KIT FOR CELL GROWTH” (PRECISION CANCER TECHNOLOGIES INC ., priority 2019, published 2023)", "key": {"[1]": {"test_system": "lung cancer cells overexpressing the EGFR receptor (PDX)", "experiment": "ex vivo drug testing of lung cancer cells overexpressing EGFR in 3D hydrogel", "type": "cell-based, human", "conditions": "responder conditions of example 1a (hydrogel without any RGD motif); FIG. 1e"}, "[2]": {"test_system": "pancreatic ductal adenocarcinoma (PDAC) cancer model PAXF736", "experiment": "in vivo treatment of PDX PDAC model", "design": "species or system human", "experimental": "(§1) Pancreatic ductal adenocarcinoma (PDAC) cancer cells from a patient were first expanded in mice as a PDX model. The PDX-derived cells were grown in a range of extracellular matrix conditions."}, "[3]": {"test_system": "PDX cells of pancreatic ductal adenocarcinoma (PDAC) cancer model PAXF736", "experiment": "ex vivo drug sensitivity of PDX PDAC cells in different gels", "type": "cell-based, human", "experimental": "as §1\nA PEG was used as a hydrogel precursor molecule for making a non self-degradable hydrogel. As a crosslinking agent, peptides containing at least two, preferably two cysteine moieties were used which varied in their amino acid sequence, in particular with respect to the presence or absence of a RGD adhesion motif and with respect to the presence or absence of a MMP degradation sequence. A further variation that was made to some hydrogels was the attachment of a bioactive ligand comprising a RGD or a cyclic RGD adhesion motif, or alternatively a bioactive ligand comprising a DGEA motif. An array of hydrogels varying in the above preselected features was established, by the method described above.\nThe mechanical properties of the hydrogels were also varied (hard (2000-3000 Pa), medium (1000-2000 Pa) or soft (50-1000 Pa) gels).\nA variety of different known, commonly employed and/or commercially available culture media was used.\nIn FIG. 2a and FIG. 2b, the results are shown for a soft non self-degradable PEG hydrogel with a crosslinking moiety without RGD motif, and with a bioactive ligand comprising a RGD adhesion motif (example 2a), as well as for a soft non self-degradable PEG hydrogel with a crosslinking moiety with RGD motif, and with a bioactive ligand comprising a DGEA adhesion motif (example 2b). For comparison, tests were also conducted in the undefined natural-derived matrix Matrigel® (comparative example 2)."}}, "note": "“Also recorded” adds a separate entry of the source.", "data": [{"substance": "Cetuximab", "values": [{"measurement": "drug response (effect of treatment)", "setting": "[1]", "value": "clear effect"}, {"measurement": "tumor growth in vivo", "setting": "[2]", "value": "reduces the tumor growth"}, {"measurement": "drug sensitivity", "setting": "[3]; Matrigel (comparative example 2)", "value": "no effect"}, {"measurement": "drug sensitivity", "setting": "[3]; hydrogel of example 2a (soft, crosslinker without RGD, RGD ligand), FIG. 2b", "value": "comparable to that of Matrigel®; also recorded: much lower"}, {"measurement": "drug sensitivity", "setting": "[3]; hydrogel of example 2b (soft, crosslinker with RGD, DGEA ligand), FIG. 2b", "value": "much higher drug sensitivity"}]}]}
